Our source for the EC50 values is patent US10550112B2, “Pyrimidines as EGFR inhibitors and methods of treating disorders” (Dana-Farber Cancer Institute, Inc., priority 2015, dated 2020).

Amino acid sequences for entries named in this document (tags omitted). Chains listed by the source or under a name are the forms on record and can include a tag or linker.
UniProt P04626, whole entry, stated change not applied: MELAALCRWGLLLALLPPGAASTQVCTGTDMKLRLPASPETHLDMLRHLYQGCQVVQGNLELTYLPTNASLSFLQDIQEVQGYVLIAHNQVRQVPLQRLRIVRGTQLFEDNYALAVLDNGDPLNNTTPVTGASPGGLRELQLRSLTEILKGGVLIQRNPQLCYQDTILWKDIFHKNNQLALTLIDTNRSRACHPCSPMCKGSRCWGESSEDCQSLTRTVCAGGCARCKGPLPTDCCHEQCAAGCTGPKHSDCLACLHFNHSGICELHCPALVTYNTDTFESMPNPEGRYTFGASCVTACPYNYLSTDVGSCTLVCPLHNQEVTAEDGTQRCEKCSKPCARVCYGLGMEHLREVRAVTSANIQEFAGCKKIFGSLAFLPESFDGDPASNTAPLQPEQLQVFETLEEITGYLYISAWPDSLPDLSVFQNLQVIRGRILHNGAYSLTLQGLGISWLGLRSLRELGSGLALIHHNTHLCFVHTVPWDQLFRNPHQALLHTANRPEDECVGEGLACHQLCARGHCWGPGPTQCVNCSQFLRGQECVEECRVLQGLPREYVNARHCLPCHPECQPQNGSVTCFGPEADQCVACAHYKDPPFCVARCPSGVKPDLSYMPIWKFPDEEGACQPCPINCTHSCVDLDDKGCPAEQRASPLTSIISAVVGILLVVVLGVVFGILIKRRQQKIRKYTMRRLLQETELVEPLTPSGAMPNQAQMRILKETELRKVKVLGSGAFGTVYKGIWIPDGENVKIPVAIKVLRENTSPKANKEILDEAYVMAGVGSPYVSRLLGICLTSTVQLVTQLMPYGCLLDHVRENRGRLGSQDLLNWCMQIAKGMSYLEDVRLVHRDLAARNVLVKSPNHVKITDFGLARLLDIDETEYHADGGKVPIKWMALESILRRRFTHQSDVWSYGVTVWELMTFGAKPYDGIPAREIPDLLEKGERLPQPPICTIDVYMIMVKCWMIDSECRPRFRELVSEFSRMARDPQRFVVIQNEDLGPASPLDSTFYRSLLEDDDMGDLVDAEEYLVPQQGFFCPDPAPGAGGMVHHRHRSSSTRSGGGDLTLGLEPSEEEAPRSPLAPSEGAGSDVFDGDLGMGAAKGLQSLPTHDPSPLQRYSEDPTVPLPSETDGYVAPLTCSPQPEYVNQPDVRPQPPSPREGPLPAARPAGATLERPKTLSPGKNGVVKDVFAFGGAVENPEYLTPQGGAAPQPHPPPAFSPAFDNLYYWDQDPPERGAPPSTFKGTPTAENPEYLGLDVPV
UniProt P04626, with tags, fused parts or gaps DUP772-775: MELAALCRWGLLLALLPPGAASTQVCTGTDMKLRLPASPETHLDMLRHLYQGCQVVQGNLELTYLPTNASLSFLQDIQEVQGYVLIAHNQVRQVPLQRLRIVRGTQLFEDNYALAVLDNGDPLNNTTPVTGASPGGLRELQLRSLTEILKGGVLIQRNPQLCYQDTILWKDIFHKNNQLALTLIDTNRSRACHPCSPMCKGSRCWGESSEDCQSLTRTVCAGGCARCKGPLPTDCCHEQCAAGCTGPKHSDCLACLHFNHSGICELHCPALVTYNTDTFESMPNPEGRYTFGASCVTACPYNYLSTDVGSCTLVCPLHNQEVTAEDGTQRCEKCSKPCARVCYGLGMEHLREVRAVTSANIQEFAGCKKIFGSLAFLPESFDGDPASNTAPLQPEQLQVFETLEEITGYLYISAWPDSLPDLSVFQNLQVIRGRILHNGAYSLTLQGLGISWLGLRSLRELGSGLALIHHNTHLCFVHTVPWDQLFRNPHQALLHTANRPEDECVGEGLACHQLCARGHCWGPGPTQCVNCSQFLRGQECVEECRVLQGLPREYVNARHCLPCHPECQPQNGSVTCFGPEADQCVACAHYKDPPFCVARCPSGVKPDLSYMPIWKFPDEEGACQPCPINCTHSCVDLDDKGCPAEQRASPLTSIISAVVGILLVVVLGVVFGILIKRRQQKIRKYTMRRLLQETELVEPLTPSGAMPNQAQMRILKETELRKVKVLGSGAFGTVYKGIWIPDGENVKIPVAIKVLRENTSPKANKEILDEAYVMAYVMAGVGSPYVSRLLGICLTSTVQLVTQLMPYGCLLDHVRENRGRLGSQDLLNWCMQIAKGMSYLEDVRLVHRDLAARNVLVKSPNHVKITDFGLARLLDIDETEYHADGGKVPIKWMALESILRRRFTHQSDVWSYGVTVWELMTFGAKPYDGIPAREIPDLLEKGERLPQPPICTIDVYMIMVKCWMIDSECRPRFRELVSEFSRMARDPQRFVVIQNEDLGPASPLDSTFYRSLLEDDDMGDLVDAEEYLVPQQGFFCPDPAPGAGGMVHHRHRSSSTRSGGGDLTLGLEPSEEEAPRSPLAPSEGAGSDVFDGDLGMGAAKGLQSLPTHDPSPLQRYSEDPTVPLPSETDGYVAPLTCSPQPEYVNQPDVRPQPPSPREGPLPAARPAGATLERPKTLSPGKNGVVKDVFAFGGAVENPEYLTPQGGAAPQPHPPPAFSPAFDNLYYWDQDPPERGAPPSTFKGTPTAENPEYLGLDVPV

Where only a bound is given, the exact number is not on record here.

Usually EC50 stands for the concentration that produces a half-maximal response. High values mean lower potency in that assay, low ones higher potency in that assay.

For experiment [1], the target named is HER2 wild type Ba/F3 cell line (Homo sapiens, UniProt P04626). As to the kind of experiment: Ba/F3 cell proliferation MTS assay, HER2 wild type. Type of experiment: cell-based, Murine. Particulars: HER2 wild type Ba/F3 cells, 72 hours. (Tetrazolium assays rely on reduction of a dye to a coloured formazan, in cell work by metabolically active cells.)
For experiment [2], the target named is HER2 InsYVMA Ba/F3 cell line (Homo sapiens, UniProt P04626, DUP772-775, cells depend on it). As to the kind of experiment: Ba/F3 cell proliferation MTS assay, HER2 InsYVMA.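 Further: murine Ba/F3 cells engineered to carry mutant HER2, viability read colorimetrically by MTS after 72 h of exposure, EC50 from sigmoidal non-linear regression of dose response.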 In kind it is cell-based, Murine. Particulars: 72 hours.

`COc1cc2ncnc(Nc3ccc(F)c(Cl)c3)c2cc1NC(=O)/C=C/CN1CCCCC1` [Dacomitinib, reference compound]: the concentration giving a half-maximal response (EC50) in experiment [1] and in experiment [2] was under 100 nM throughout.
